Legend:
mAb6H4 = assay: RIA binding specificity, relative potency to METH; set-up: species or system mouse; conditions: RIA IC50 value for METH/RIA IC50 value for test ligand
mAb6H8 = assay: RIA binding specificity, relative potency to METH; set-up: species or system mouse; conditions: RIA IC50 value for METH/RIA IC50 value for test ligand
mAb4G9 = assay: RIA binding specificity, relative potency to METH; set-up: species or system mouse; conditions: RIA IC50 value for METH/RIA IC50 value for test ligand
discriminative stimulus = conditions: (+)-methamphetamine trained rats; cited from earlier work
[1] = (+)-Methamphetamine and (+)-amphetamine pharmacokinetic studies in serum and brain with and without mAb6H4; conditions: Brain, 1-mol equivalent dose of mAb at 30 min

## (+)-methamphetamine [(+)METH]
mAb6H4
  Relative Potency to METH, mAb6H4: 1.00
mAb6H8
  Relative Potency to METH, mAb6H8: 1.00
mAb4G9
  Relative Potency to METH, mAb4G9: 1.00
Discriminative stimulus
  potency relative to cocaine: 10 times
[1]
  AUC38 min-[…] Treated: 246 ng·h/g

— US9303092B2, “Methamphetamine-like hapten compounds, linkers, carriers and compositions and uses thereof” (The Board of Trustees of the University of Arkansas, priority 2000, dated 2016)
